The assay addresses T1, AcrB (Escherichia coli, UniProt P31224).
T1 sequence (P31224 1-1049): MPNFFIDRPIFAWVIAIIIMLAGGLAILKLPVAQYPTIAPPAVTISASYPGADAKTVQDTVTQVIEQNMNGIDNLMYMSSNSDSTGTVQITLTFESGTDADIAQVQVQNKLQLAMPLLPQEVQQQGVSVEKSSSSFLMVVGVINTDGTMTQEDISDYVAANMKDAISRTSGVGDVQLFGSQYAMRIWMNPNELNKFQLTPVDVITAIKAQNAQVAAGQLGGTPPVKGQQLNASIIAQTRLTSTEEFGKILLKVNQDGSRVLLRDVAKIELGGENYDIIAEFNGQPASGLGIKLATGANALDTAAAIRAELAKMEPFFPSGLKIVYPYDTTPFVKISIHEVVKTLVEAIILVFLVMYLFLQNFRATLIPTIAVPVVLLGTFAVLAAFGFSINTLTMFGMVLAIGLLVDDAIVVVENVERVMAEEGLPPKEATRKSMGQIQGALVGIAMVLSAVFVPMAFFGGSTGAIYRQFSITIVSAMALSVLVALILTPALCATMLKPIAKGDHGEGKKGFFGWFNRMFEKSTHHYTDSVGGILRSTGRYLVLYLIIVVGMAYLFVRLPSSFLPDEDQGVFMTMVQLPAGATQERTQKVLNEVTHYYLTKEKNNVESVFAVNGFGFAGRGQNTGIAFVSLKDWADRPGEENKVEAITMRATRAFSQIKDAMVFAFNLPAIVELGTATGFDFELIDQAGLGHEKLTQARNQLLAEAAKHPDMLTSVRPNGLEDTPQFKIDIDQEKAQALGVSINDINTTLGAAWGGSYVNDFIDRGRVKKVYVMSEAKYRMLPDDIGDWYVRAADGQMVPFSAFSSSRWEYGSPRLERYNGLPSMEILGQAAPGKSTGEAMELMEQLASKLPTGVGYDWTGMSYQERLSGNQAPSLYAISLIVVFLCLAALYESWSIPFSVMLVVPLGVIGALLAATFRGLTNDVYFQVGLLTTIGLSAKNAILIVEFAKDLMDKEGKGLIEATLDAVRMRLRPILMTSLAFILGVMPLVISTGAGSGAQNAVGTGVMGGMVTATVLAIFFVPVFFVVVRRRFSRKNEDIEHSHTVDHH
To be noted: 20 nM AcrB, room temperature; low affinity.

Data on 1 compound can be found in article doi:10.1101/2025.02.18.638599v1 (biorxiv, 2025).

Molecules are shown by their SMILES.

For the compound `COc1c(N)ccc2c1CCCC(N1CCN(CCO)CC1)C2` (stereo not shown) [LP-115], the KD is 1.5 [95% CI: 0.80; 2.9] mM.
